Earlier results on one substance are cited in patent US20250177557A1, “METHODS OF PRODUCING MICROBUBBLE DRUG CONJUGATES, VIRAL GENE THERAPY MICROBUBBLE CONJUGATES AND TARGETED MICROBUBBLES” (priority 2022, published 2025).

For the data set the following is noted: patients; cited from earlier work.

nivolumab: the “Incidence of grade 3 or -4 treatment-related AEs” value is listed as 21%.
